Measured values as given in article PMC11860776 (Viruses, 2025).

Target: GST-mIMPα2ΔIBB, mouse importin α2 devoid of the autoinhibitory IMPβ binding domain (residues 70-529) (mouse, UniProt P52293 70-529)
Assay: AlphaScreen or HTRF
Details: both partners purified

B1: Simian Virus (SV)40 Large Tumor Antigen (LTA) NLS wt peptide (peptide)
peptide: SQHSTPPKKKRKV
modifications: biotin at the N-terminus
notes: source: synthetic peptide, bought: Genscript
With B1 as the binder, how does the Kd read?
The Kd was roughly 5 nM.
